This is a selection; strong and weak results do not stand in their true shares. The source made the active and inactive calls. No stated cut-off is given here; in the data, active means inhibition above about 50% (passing the limit was not always enough); inconclusive means no clear call, values can overlap the other calls; inactive means below about 31%.
assay: HIV Vif self-association inhibitors, primary screen, imaging, HEK293T, single point (AID 602346); conditions: HEK293T cells, Vif self-association by quenched fluorescence, 24 h, at 7.49 µM, active compounds read high

Row | Compound | inhibition
1 | COc1ccc(N/C(=N/P(=O)(N2CCOCC2)N2CCOCC2)N2CCOCC2)cc1 | inactive: 0.683%
2 | COC(=O)C1(C)COP(=O)(N2CCCC2)OC1 (stereo not given) | inactive: 4.79%
3 | O=C(COc1ccccc1)OC1CN2CCC1CC2 (stereo not given) | inactive: 5.31%
4 | O=C(Nc1ccncc1[N+](=O)[O-])c1ccc([N+](=O)[O-])cc1[N+](=O)[O-] | inactive: -4.12%
5 | O=C(OC1CN2CCC1CC2)c1cccc([N+](=O)[O-])c1 (stereo not given) | inactive: -3.56%
6 | CSc1ccc(Nc2c([N+](=O)[O-])cc([N+](=O)[O-])cc2[N+](=O)[O-])cc1 | inactive: -14.2%
7 | CCOC(=O)c1ccc(NC(=O)C(C)(CCl)SC)cc1 (stereo not given) | inactive: 3.07%
8 | O=C(O)C(O)c1ccc(N(CCCl)CCCl)cc1 (stereo not given) | inactive: -3.98%
9 | CCOC(=O)Nc1ccc([As](=O)(O)O)c(O)c1 | inactive: 2.66%
10 | CC1CCNP(=O)(N(CCCl)CCCl)O1 (stereo not given) | inactive: 26.7%
11 | CCCCOc1ccc(C(=O)NCC2(N3CCCCC3)CCCCC2)cc1OC | inactive: 15.3%
12 | Cc1cc(SC(NC(=O)c2ccccc2)C(Cl)(Cl)Cl)nc(C(C)C)n1 (stereo not given) | inactive: -2.47%
13 | Cc1cc(SC(NC=O)C(Cl)(Cl)Cl)ncn1 (stereo not given) | inactive: 0.503%
14 | O=P(Nc1ccccn1)(c1cccc2ccccc12)c1cccc2ccccc12 | inactive: 12.2%
15 | O=[N+]([O-])c1ccc(Nc2ccc(Oc3ccc([N+](=O)[O-])cc3[N+](=O)[O-])cc2)c([N+](=O)[O-])c1 | inactive: -3.41%
16 | O=P1(N(CCCl)CCCl)OCCCS1 (stereo not given) | inactive: 0.625%
17 | O=C(Nc1cc([As](=O)(O)O)ccc1O)c1ccccc1 | inactive: 0.043%
18 | O=[N+]([O-])c1ncn(CCn2ncnc2[N+](=O)[O-])n1 | inactive: 11.6%
19 | CC(C)(C)C(=O)NC(Sc1ccncn1)C(Cl)(Cl)Cl (stereo not given) | inactive: -0.755%
20 | O=C(O)CNc1ccc([As](=O)(O)O)cc1 | inactive: -1.18%
21 | O=[N+]([O-])c1cccc(NC2=NCC(CBr)S2)c1 (stereo not given) | inactive: -0.839%
22 | COC(=O)C1(C)COP(=O)(Nc2ccccc2)OC1 (stereo not given) | inactive: -8.81%
23 | COc1ccc(C2=NCC(CBr)S2)cc1 (stereo not given) | inactive: 6.04%
24 | Cc1ccc(NP(=O)(Oc2ccccc2)Oc2ccccc2)nc1 | inactive: -8.88%

Row | Compound | inhibition
25 | O=[N+]([O-])c1cc([N+](=O)[O-])c(CCNc2ccccc2)c([N+](=O)[O-])c1 | inactive: 4.53%
26 | CC(=O)N1C2C3N(C(C)=O)C1C1N(C(C)=O)C(C(N1C(C)=O)N3C(C)=O)N2C(C)=O | inactive: 7.62%
27 | O=[N+]([O-])c1cccc2n[nH]nc12 | inactive: -5.89%
28 | CCN(/C(=N/P(=O)(N1CCOCC1)N1CCOCC1)N1CCOCC1)c1ccc(OC)cc1 | inactive: -0.929%
29 | Nc1ccc([As](=O)(O)c2ccc(N)cc2)cc1 | inactive: 17.6%
30 | C[N+]1=C2C=CC=CC=C2SC12C([N+](=O)[O-])=CC([N+](=O)[O-])=C[C-]2[N+](=O)[O-] (stereo not given) | inactive: -11.9%
31 | CC1CCN(C(=O)Oc2c(Cl)cc(Cl)c3cccnc23)CC1 | inactive: -2.89%
32 | CC(C)=N/N=C(\N)N[N+](=O)[O-] | inactive: 3.95%
33 | CC(C)c1nc(Nc2ccccc2)n(P(=O)(N(C)C)N(C)C)n1 | inactive: -3.5%
34 | CN(C)C(=O)OCCc1n(C)cc[n+]1C | inactive: 0.443%
35 | CN(C(=O)Cc1ccc(Cl)c(Cl)c1)[C@H]1CCCC[C@H]1N1CCCC1 | inactive: -8.36%
36 | Cc1ccc(N/C(=N/P(=O)(N2CCOCC2)N2CCOCC2)N2CCOCC2)cc1 | inactive: 0.0115%
37 | NC(=O)c1cc([N+](=O)[O-])cc([N+](=O)[O-])c1N | inactive: -4.6%
38 | Clc1ccc(Cl)c(NC2=NCC(CBr)S2)c1 (stereo not given) | inactive: -9.53%
39 | COc1ccccc1OP(=O)(Nc1ccc(C)cn1)Oc1ccccc1OC | inactive: -1.34%
40 | Cc1ccc(OP(=O)(Nc2nccs2)Oc2ccc(C)cc2)cc1 | active: 53.4%
41 | Oc1ccccc1CNc1ccccn1 | inactive: 3.88%
42 | O=C(NC(Sc1ccncn1)C(Cl)(Cl)Cl)c1ccccc1 (stereo not given) | inactive: -6.17%
43 | CC(C)CC(=O)NC(Sc1ccc(Cl)cc1)C(Cl)(Cl)Cl (stereo not given) | inactive: 1.47%
44 | Nc1cc(N)c2nonc2c1[N+](=O)[O-] | inactive: -0.203%
45 | O=[N+]([O-])C1C(O)C(O)C([N+](=O)[O-])C(O)C1O (stereo not given) | inactive: 0.412%
46 | CN(C)P(=O)(N(C)C)n1c(Nc2ccccc2)nnc1-c1ccccc1 | inactive: -11.9%
47 | O=P(Nc1nc2ccc(Cl)cc2s1)(c1ccccc1)c1ccccc1 | inactive: -4.99%
48 | O=C(O)c1ccccc1[As](=O)(O)O | inactive: 8.24%

Row | Compound | inhibition
49 | CC(=O)Nc1ccc([As](=O)(O)O)cc1 | inactive: 0.96%
50 | CCCC1OP(N)(=O)OCC1CC (stereo not given) | inactive: -7.04%
51 | CCOP(=O)(Nc1ccccc1)OCC | inactive: 2.62%
52 | Cc1cc(SC(NC(=O)c2ccc(F)cc2)C(Cl)(Cl)Cl)ncn1 (stereo not given) | inactive: -1.99%
53 | CN(C(=O)Cc1ccc(Cl)c(Cl)c1)[C@H]1CCCC[C@@H]1N1CCCC1 | inactive: 2%
54 | Cc1ccc(NP(=O)(Oc2ccccc2F)Oc2ccccc2F)nc1 | inactive: 4%
55 | Nc1cccc2ccc([As](=O)(O)O)cc12 | inactive: -9.13%
56 | CCN(N=Nc1nonc1N)c1nonc1N | inactive: -7.57%
57 | c1ccc(-c2nn[nH]n2)c(-c2nn[nH]n2)c1 | inactive: 0.618%
58 | Cc1ccc(NP(=O)(Oc2cccc(C)c2)Oc2cccc(C)c2)nc1 | inactive: 0.258%
59 | O=C(NC1CCS(=O)(=O)C1)NP(=S)(Oc1ccccc1)Oc1ccccc1 (stereo not given) | inactive: 2.85%
60 | CCNC(=S)/N=C(\N)N[N+](=O)[O-] | inactive: 7.56%
61 | O=P1(N(CCCl)CCCl)OCCC2CCCCN21 (stereo not given) | inactive: -3.28%
62 | O=C(OC1CN2CCC1CC2)c1ccccc1 (stereo not given) | inactive: -4.9%
63 | CCC(=O)N1C2C3N(C(=O)CC)C1C1N(C(=O)CC)C(C(N1C(=O)CC)N3C(=O)CC)N2C(=O)CC | inactive: 7.99%
64 | COC(=O)c1cc2c(s1)N=C(c1ccccc1)N(C)P2(=O)N1CCOCC1 (stereo not given) | inactive: 5.94%
65 | Cc1ccc(OP(=O)(Nc2ccccn2)Oc2ccc(C)cc2)cc1 | inactive: -5.83%
66 | CC(=O)NC(SC(=S)N(CC(C)C)CC(C)C)C(Cl)(Cl)Cl (stereo not given) | inactive: -0.0705%
67 | Cc1ccccc1OP(=O)(Nc1ccccn1)Oc1ccccc1C | inactive: -1.45%
68 | CC(NC(=O)COC(=O)C(O)(c1ccccc1)c1ccccc1)c1ccccc1 (stereo not given) | inactive: -3.78%
69 | CN(C)C(=O)Oc1noc2ccccc12 | inactive: 4.5%
70 | O=c1c2cc([N+](=O)[O-])ccc2[nH]c2c([N+](=O)[O-])cc([N+](=O)[O-])cc12 | inactive: -1.16%
71 | O=P1(Nc2nc3ccc(Cl)cc3s2)COc2ccccc2O1 (stereo not given) | inactive: 0.741%
72 | CCOc1ccc(C2=NCC(CBr)S2)cc1 (stereo not given) | inactive: -8.68%

Row | Compound | inhibition
73 | CC(C)(C)C(=O)NC(Sc1ccccc1)C(Cl)(Cl)Cl (stereo not given) | inactive: 1.56%
74 | CCc1cc(O)c([N+](=O)[O-])c(C)c1[N+](=O)[O-] | inactive: 15.6%
75 | Cc1ccccc1CN(C)C(=O)COC(=O)C(O)(c1ccccc1)c1ccccc1 | inactive: -1.49%
76 | C[C@@H]1C=CCP(=O)(Oc2ccccc2)O1 (stereo not given in full) | inactive: -2.64%
77 | C[C@H]1OP(=O)(Oc2ccccc2)C[C@@H]2O[C@@H]21 (stereo not given in full) | inactive: -0.996%
78 | N#C/C(=C\c1ccc(N(CCBr)CCBr)cc1)C(N)=O | inactive: 5.82%
79 | CC(=O)c1ccc(N2CC2c2ccncc2)cc1 (stereo not given) | inactive: 0.448%
80 | COC(=O)C1(C)COP(=O)(NCc2ccccc2)OC1 (stereo not given) | inactive: -7.3%
81 | CC(=O)Nc1ccc([As](=O)(O)O)c(O)c1 | inactive: -12.2%
82 | CC(=O)Nc1ccc(Oc2c([N+](=O)[O-])cc([N+](=O)[O-])cc2[N+](=O)[O-])cc1 | inactive: 15.3%
83 | O=P(Nc1nccs1)(c1ccccc1)c1ccccc1 | inactive: 6.53%
84 | c1nnnn1CCn1cnnn1 | inactive: 7.54%
85 | CN(C)C1(CNC(=O)c2ccc(Cl)c(S(N)(=O)=O)c2)CCCCC1 | inactive: -10.9%
86 | O=P(Nc1ccccn1)(c1ccc(Br)cc1)c1ccc(Br)cc1 | inactive: -16.3%
87 | COc1ccc(N)c([N+](=O)[O-])c1[N+](=O)[O-] | inactive: 4.93%
88 | C[C@H]1OP(=O)(Oc2ccccc2)[C@H](O)[C@H](O)[C@H]1N=[N+]=[N-] (stereo not given in full) | inactive: -1.44%
89 | O=[As](O)(c1ccccc1)c1ccc(O)cc1 | inactive: -16.7%
90 | O=[N+]([O-])c1ncn(CCn2cnc([N+](=O)[O-])n2)n1 | inactive: -2.29%
91 | CC(=O)NC(SC(=S)N(C)C)C(Cl)(Cl)Cl (stereo not given) | inactive: 0.897%
92 | O=[N+]([O-])c1ccc(O)c(/C=N/Nc2ccc([N+](=O)[O-])cc2[N+](=O)[O-])c1 | inactive: -19.6%
93 | O=C(OC1CN2CCC1CC2)c1cccc(Cl)c1 (stereo not given) | inactive: -11.5%
94 | Nc1ccc([As](=O)(O)c2ccc([N+](=O)[O-])cc2)cc1 | inactive: 1.29%
95 | C(Cc1nn[nH]n1)Cc1nn[nH]n1 | inactive: 6.29%

Source: PubChem BioAssay AID602346 (Broad Institute, 2012)
